# Experimental data as given in article PMC10872542 (Structure (London, England : 1993), 2023).
# By UniProt entry, the sequences of proteins in these tests, tags left out.
# UniProt Q9XSM3, whole entry F472A: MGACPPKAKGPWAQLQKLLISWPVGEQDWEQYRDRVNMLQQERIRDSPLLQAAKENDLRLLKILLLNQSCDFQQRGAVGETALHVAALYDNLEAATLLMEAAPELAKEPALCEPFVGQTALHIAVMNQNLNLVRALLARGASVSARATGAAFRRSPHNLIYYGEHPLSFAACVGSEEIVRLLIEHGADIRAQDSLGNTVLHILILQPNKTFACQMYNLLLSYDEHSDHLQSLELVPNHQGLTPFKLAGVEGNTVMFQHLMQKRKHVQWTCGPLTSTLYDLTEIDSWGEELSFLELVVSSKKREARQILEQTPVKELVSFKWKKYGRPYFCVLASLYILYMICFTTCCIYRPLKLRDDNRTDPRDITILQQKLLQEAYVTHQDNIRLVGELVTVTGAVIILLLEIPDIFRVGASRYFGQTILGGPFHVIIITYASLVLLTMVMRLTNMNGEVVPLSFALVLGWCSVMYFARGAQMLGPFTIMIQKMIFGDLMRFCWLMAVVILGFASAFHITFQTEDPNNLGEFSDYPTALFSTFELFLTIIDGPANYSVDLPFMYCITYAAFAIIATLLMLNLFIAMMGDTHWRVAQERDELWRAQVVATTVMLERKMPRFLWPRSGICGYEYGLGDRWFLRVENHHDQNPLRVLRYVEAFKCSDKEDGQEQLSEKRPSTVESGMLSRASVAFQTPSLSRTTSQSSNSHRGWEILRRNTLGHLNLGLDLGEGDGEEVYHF
# UniProt Q9XSM3, whole entry L475A: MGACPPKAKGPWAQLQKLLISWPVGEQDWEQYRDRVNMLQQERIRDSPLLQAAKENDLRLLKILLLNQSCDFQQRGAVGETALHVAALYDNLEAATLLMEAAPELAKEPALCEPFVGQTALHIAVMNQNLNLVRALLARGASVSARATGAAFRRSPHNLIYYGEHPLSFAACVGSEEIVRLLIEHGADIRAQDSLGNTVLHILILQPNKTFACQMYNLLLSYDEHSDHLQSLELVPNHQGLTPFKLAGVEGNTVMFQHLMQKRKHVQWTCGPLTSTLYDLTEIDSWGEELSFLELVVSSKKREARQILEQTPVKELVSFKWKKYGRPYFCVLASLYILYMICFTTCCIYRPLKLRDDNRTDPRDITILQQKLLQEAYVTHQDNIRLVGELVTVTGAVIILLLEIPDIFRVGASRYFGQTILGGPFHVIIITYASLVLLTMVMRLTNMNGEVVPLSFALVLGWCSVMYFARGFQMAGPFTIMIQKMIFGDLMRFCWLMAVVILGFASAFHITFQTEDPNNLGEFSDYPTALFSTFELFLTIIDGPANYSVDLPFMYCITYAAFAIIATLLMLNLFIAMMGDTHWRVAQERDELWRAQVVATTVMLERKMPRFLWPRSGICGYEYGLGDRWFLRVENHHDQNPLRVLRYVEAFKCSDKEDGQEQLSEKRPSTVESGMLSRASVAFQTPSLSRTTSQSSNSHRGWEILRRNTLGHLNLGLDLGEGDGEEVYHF
# Tests used:
# wild-type rbTRPV5 = wild-type rbTRPV5 (Oryctolagus cuniculus, UniProt Q9XSM3); conditions: wild-type TRPV5, 10 μM ECN, whole-cell patch clamp, n=7
# rbTRPV5 F472A mutant = rbTRPV5 F472A mutant (Oryctolagus cuniculus, UniProt Q9XSM3, F472A); conditions: 10 μM ECN, whole-cell patch clamp, n=6
# rbTRPV5 L475A mutant = rbTRPV5 L475A mutant (Oryctolagus cuniculus, UniProt Q9XSM3, L475A); conditions: 10 μM ECN, whole-cell patch clamp, n=6
smiles,measurement,setting,value
Clc1ccc(COC(Cn2ccnc2)c2ccc(Cl)cc2Cl)cc1 (stereo not drawn) [econazole],inhibition of monovalent currents,wild-type rbTRPV5,~ 100%
same,inhibition of monovalent currents,rbTRPV5 F472A mutant,~ 65%
same,inhibition of monovalent currents,rbTRPV5 L475A mutant,~ 25%
